According to US5241087A (priority 1992, dated 1993):

Test: Dehydrocyanation equilibrium
Conditions: 1M solution exposed to a dehydrocyanation catalyst

With `N#CC(O)c1ccccc1` (stereo not shown) [Benzaldehyde cyanohydrin] as the molecule, how does the “conversion to benzaldehyde and hydrogen cyanide at equilibrium” value read?
The value was “about 7%”.
